Results on one compound are retold here after publication PMC12154214, “Bioactive Peptides from Sodium Caseinate Hydrolysate with High Oral Absorption Regulate Blood Glucose in Type 2 Diabetic Mice via Inhibition of DPP-IV and Stimulation of GLP-1” (Foods, 2025).

The chains behind the UniProt entries cited, without tags or fusion partners. Residues count along the entry.
UniProt P28843, 37-760 limits assumed: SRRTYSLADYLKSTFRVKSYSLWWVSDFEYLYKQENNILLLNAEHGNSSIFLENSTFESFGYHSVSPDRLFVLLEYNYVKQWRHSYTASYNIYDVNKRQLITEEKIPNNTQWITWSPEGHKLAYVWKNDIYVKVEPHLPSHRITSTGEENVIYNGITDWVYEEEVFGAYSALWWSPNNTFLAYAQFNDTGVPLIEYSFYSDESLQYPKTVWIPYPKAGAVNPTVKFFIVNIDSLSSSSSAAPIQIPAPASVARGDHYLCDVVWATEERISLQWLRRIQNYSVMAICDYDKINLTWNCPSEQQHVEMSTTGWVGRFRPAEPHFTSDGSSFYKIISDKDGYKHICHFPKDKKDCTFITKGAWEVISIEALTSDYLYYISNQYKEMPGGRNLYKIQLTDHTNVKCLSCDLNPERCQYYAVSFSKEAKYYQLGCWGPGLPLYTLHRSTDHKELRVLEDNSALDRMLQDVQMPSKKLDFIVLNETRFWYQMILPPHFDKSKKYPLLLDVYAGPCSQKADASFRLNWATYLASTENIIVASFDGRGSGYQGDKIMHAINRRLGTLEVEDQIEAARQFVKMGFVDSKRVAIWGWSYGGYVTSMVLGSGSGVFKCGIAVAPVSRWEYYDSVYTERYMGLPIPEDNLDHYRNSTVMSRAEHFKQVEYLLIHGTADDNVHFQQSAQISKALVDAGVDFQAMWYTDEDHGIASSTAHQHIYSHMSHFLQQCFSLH

For one test, the target named is T1, plasma DPP-IV (Mus musculus, UniProt P28843).
T1 construct: blood samples were obtained from all mice into EDTA-treated chilled tubes and then centrifuged; from tissue; host or cells: plasma of db/db mice
Briefly: Plasma DPP-IV activity in db/db mice. The format is in vivo. The conditions noted are these: after 3-week treatment, 1CBR 500 mg/kg/day, sitagliptin 20.5 mg/kg/day, group C 83%.

Another test has as its system db/db mice. Briefly: Oral glucose tolerance test (OGTT) in db/db mice. The conditions noted are these: after 3 weeks of administration, 1CBR 500 mg/kg/day, sitagliptin 20.5 mg/kg/day. The format is in vivo. On the procedure: In this study, db/db mice (BKS.Cg-Dock7m+/+Leprdb/JNarl from National Laboratory Animal Center, Taipei, Taiwan) 5 weeks of age and weighing 22–25 g were analyzed. The mice were given the 5001-Laboratory Rodent Diet (LabDiet®, St. Louis, MO, USA), which comprised 57% carbohydrate, 13% fat, and 30% protein by total kcal. The Institutional Animal Care and Use Committee (IACUC) of China Medical University approved all animal care and experimental protocols. Between the ages of 6 and 8 weeks, the blood glucose concentrations in the mice were monitored weekly. […] The mice were randomly allocated to three groups, each consisting of 13 individuals. The experimental period lasted for 3 weeks. Group C: control mice; Group P: mice administered 1CBR (500 mg/kg/day); Group S: mice administered sitagliptin (20.5 mg/kg/day; positive control). Mice were housed in groups of 3–4 per cage. The sample size was determined based on previous studies and ethical considerations (3Rs principle) to achieve adequate statistical power without excessive animal use. […] This dose was also within the effective range reported for other food-derived bioactive protein hydrolysates in rodent models. An OGTT was conducted on mice fasted overnight from each group at week 0 and week 3. […]

With `N[C@@H](CC(=O)N1CCn2c(nnc2C(F)(F)F)C1)Cc1cc(F)c(F)cc1F` [sitagliptin], the “plasma DPP-IV activity” value at plasma DPP-IV was 26%. The “mean plasma glucose concentration (OGTT)” value with db/db mice is given as “below 400 mg/dL”.
